Experimental data from ChEMBL document CHEMBL4334464, “From Phenylthiazoles to Phenylpyrazoles: Broadening the Antibacterial Spectrum toward Carbapenem-Resistant Bacteria” (J Med Chem, 2019).

Columns and labels:
Escherichia coli [1] = assay: Antimicrobial activity against Escherichia coli JW55031 harboring deltatolC mutant after 18 to 20 hrs in aerobic condition by CLSI protocol based broth microdilution assay; format: functional
Escherichia coli [2] = assay: Antibacterial activity against Escherichia coli BW25113 clinical isolates after 18 to 20 hrs in aerobic condition by CLSI-based broth microdilution assay; format: functional
Acinetobacter baumannii = details: ATCC BAA 1747
Escherichia coli [3] = details: ATCC 1411
Pseudomonas aeruginosa [4] = details: ATCC 9027
Pseudomonas aeruginosa [5] = details: ATCC 25619

Measured: MIC

GENTAMICIN
0.5 µg/mL: all assays above
